Laboratory results published in patent US4556671A, “Pharmaceutical formulations” (Burroughs Wellcome Co., priority 1981, dated 1985).

Sequences of proteins named here, by UniProt entry; tags and fusion partners are left off. Residues count along the entry.
UniProt P23219, 24-599: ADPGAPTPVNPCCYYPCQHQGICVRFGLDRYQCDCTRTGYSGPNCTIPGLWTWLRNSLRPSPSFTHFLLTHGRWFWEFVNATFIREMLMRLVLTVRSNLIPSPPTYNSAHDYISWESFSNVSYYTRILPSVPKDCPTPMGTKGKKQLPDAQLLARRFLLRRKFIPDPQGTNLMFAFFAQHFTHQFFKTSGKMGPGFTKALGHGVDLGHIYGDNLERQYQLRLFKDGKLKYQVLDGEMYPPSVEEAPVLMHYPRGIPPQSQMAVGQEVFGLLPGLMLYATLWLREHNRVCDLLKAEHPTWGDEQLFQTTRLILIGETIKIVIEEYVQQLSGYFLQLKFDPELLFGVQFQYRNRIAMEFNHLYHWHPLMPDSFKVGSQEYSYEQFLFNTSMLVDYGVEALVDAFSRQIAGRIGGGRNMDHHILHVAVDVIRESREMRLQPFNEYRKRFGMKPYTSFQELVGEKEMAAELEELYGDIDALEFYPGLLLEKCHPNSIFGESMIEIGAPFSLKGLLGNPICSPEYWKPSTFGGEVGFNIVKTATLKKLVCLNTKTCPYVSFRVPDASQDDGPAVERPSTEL

What was measured:
Prostaglandin = assay: Carrageenin-impregnated sponge inflammatory exudates: prostaglandin concentration; assay type: in vivo, rat; conditions: 50 mg/kg p.o., 24 hours
Description: The sponges were removed after 24 hours, immersed in 5 ml herparinised saline and squeezed until dry.

cyclo-oxygenase = cyclo-oxygenase (Homo sapiens, UniProt P23219); conditions: read-out: IC50 (cyclo-oxygenase)

NC1=NN(c2cccc(C(F)(F)F)c2)CC1 [Example 1, 3-Amino-1-(m-trifluoromethylphenyl)pyrazol-2-ine]
Reduction of Prostaglandin Concentration (Prostaglandin): 69% | IC50 (cyclo-oxygenase): 12.2 µM
